## Ab-95 light chain CDR variants: yeast mating affinities

Reference: Engelhart et al. 2022, doi:10.1038/s41597-022-01779-4. File: FLAb, binding data.

Antigen: PDVDLGDISGINAS, a 14-residue peptide of the SARS-CoV-2 spike HR2 region.

Each scFv is VH, a (GGGGS)3 linker, VL, as in the parent Ab-95, and differs from it in the CDRs of the light chain only.
VH: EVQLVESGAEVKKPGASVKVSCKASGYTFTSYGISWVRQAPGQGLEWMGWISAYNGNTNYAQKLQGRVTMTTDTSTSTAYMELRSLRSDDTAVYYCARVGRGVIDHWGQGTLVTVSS
VL: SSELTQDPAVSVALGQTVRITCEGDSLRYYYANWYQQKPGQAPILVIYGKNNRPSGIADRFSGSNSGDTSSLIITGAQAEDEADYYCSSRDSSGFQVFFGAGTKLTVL

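The parent was found by panning a naive human phage display library on the peptide. Variants in AAYL52 differ from the parent at up to three CDR positions; double and triple changes were sampled at random. AlphaSeq pools MATa yeast showing the antibodies with MATalpha yeast showing the peptide. Pairs that bind mate more often; barcode pairs of the diploids are counted by sequencing. The ratio of observed to expected reads was calibrated, replicate by replicate, on BCL2-family standards whose Kd was known from biolayer interferometry. The assay was run in three technical replicates.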

Changes read parent residue, position, new residue, counted from the first residue of the VL shown. Values are log10 of the apparent Kd in nM; lower means stronger binding. "ND" marks a missing value. The strain was present, yet no cells mated with the target were sequenced in that replicate, which points to weak or no binding. In this assay the parent's reference entry averaged 2.31; its copy inside this library read 2.25.

Variant S55H+S89M+R90T gave ND, 4.60, ND (controls 1 of 9).
Variant G49I+S89T+R90K gave ND, 3.31, ND (controls 0 of 9).
Variant D25Y+K50G+Q96R gave 2.20, 2.29, 1.82 (controls 5 of 9).
Variant R28W+Y29A+Y30P gave 2.26, 2.17, 1.49 (controls 2 of 9).
Variant S55C+D91M+Q96G gave ND, ND, ND (controls 1 of 9).
Variant E23P+Y29N+Y30T gave 1.67, 1.52, 1.34 (controls 5 of 9).
Variant G24A+L27Y+A32W gave 5.29, 3.84, 3.88 (controls 3 of 9).
Variant R53Q+S55Y+D91P gave ND, 4.36, ND (controls 5 of 9).
Variant G49A+K50L+R53M gave ND, ND, ND (controls 2 of 9).
Variant G24E+S55D+Q96D gave 3.80, 4.22, ND (controls 1 of 9).
Variant G24M+S92K+S93A gave 2.56, 2.61, 2.06 (controls 3 of 9).
Variant R28Q+S89A+Q96A gave 2.17, 1.98, 2.02 (controls 2 of 9).
Variant R28A+N33F+D91T gave 3.09, ND, ND (controls 1 of 9).
Variant R53E+P54T+V97C gave ND, ND, ND (controls 2 of 9).
Variant S26V+K50I+S88I gave 3.27, ND, ND (controls 2 of 9).
Variant Y29T+N33R+N51L gave 2.89, 3.45, 2.95 (controls 2 of 9).
Variant E23T+N52G+V97A gave 2.77, 2.26, 1.91 (controls 0 of 9).
Variant S89D+G94K+V97K gave ND, ND, ND (controls 0 of 9).
Variant N51M+R90F gave ND, ND, ND (controls 0 of 9).
Variant A32N+N33S+N52V gave 2.59, 2.21, 2.14 (controls 1 of 9).
Variant D25H+N33P+S92G gave 4.01, 3.07, 4.30 (controls 3 of 9).
Variant Y29S+N52L+S89M gave 2.20, 2.37, 1.67 (controls 4 of 9).
Variant N51C+S55Y+F95P gave 2.97, 3.35, 2.80 (controls 6 of 9).
Variant L27A+N33V+F98Q gave ND, 4.86, ND (controls 4 of 9).
Variant L27W+D91E+V97M gave 3.39, ND, 4.30 (controls 1 of 9).
Variant L27G+Y29I+Q96F gave 3.91, 5.86, 3.67 (controls 5 of 9).
Variant E23D+S55Q gave 2.59, 2.10, 1.83 (controls 5 of 9).
Variant A32K+S89I+F98Y gave ND, ND, ND (controls 0 of 9).
Variant L27T+R28D+S89Q gave ND, ND, ND (controls 0 of 9).
Variant S26G+S89F+G94R gave 2.36, 2.24, 3.86 (controls 2 of 9).
Variant D25W+S88N+G94K gave ND, ND, ND (controls 0 of 9).
Variant A32Q+D91Y+S92D gave 5.55, ND, 4.40 (controls 1 of 9).
Variant D25W+F95H gave 3.16, 3.53, ND (controls 2 of 9).
Variant R28P+G49L+D91G gave ND, 4.99, ND (controls 1 of 9).
Variant D91K+F98T gave 2.93, 3.00, 2.87 (controls 5 of 9).
Variant K50M+N52Y+P54F gave 3.37, 4.09, ND (controls 5 of 9).
Variant N33I+D91A+S92T gave 4.70, ND, ND (controls 2 of 9).
Variant Y30R+N52V+S92T gave 1.79, 1.76, 1.34 (controls 5 of 9).
Variant E23D+P54T+F98A gave 3.43, 4.43, ND (controls 5 of 9).
Variant N51C+F95I+V97E gave ND, ND, ND (controls 3 of 9).
Variant Y30S+R90Q+F98K gave 3.77, ND, 4.22 (controls 3 of 9).
Variant G24I+R28Q gave ND, 3.34, 2.74 (controls 1 of 9).

Three control strains display no target. For library AAYL52, 28% of the pairings with them gave a signal, with a median of 3.91 and one signal in twenty below 2.90, so weak values seen in few replicates may be background. The control count says in how many pairings with the empty strains this scFv gave a signal.